Data taken from ChEMBL document CHEMBL4613282, “Novel N-Substituted Benzomorphan-Based Compounds: From MOR-Agonist/DOR-Antagonist to Biased/Unbiased MOR Agonists” (ACS Med Chem Lett, 2020).

The chains behind the UniProt entries cited, without tags or fusion partners. Where a name states a change or a piece, a line headed by the entry shows the natural chain unless it says otherwise.
UniProt P41144: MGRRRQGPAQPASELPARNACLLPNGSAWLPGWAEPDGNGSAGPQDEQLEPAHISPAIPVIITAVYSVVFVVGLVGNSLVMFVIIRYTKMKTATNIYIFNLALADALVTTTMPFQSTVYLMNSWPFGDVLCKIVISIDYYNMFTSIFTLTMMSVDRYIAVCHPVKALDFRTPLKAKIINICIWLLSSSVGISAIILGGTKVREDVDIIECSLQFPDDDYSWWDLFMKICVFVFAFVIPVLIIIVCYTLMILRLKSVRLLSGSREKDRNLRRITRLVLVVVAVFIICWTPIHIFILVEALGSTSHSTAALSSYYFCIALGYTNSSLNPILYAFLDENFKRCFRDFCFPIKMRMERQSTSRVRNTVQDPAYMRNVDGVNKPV

Biological target: Kappa-type opioid receptor (Cavia porcellus, UniProt P41144)
Test: Displacement of [3H]-U69,593 from KOR in guinea pig brain membranes incubated for 30 mins by liquid scintillation counting

Molecule CN(C(=O)Cc1ccc(Cl)c(Cl)c1)C1CCCCC1N1CCCC1 (stereo unspecified) has a Ki of 0.27 nM.
